Measurements reported in patent US11975009B2, “Use of zinc porphyrin as an antimicrobial” (ZNABLE LLC, priority 2022, dated 2024).

Test system: PsA PAO1 biofilm
Test: PAO1 biofilm on coupons, LIVE/DEAD stain, confocal microscopy
Format: cell-based, Pseudomonas aeruginosa
Details: 4 μg/mL for 24 h
Method: FIG. 2A: ZnPor (alone) stained biofilm. […] Length of size bar: […].
FIGS. 15A-15B show the biofilms of PAO1 treated with various concentrations of ZnPor (II) and in combination with PEV2 phage. Biofilms of strain PAO1 were grown on coupons cut from polyethylene in MSG media for approximately 16-18 hours. Overnight media was replaced with fresh PBS and were treated with (FIG. 15B) ZnPor (II) only at concentrations of 5, 10 or 25 μg/mL, and incubated for 2 h, (FIG. 15A) phage PEV2 only (MOI=10:1) for 4 h, or (FIG. 15B) ZnPor (II) treatment for 2 h followed by the addition of phage PEV2 (MOI of 10:1) and incubated for an additional 4 h. Coupons were gently washed in distilled water and were treated with LIVE/DEAD™ stain. All coupons were imaged using confocal laser scanning […] microscopy (CLSM) at 60×. Green=LIVE Red=DEAD.
PAO1 was grown overnight in MSG at 37 C with shaking. CDC Bioreactors with PE coupons were inoculated to a final OD of 0.15 in cation adjusted Mueller Hinton broth. Biofilms were grown 16-18 h at 37 degrees C. with 50 rpm stirring. Control biofilm is shown (FIG. 20A). All overnight media in bioreactors were replaced with fresh PBS. Bioreactors treated with ZnPor (II) at 4 μg/mL were left to incubate for 2 hours without stirring. Bioreactors treated with either whole PEV2 phage or the purified DNA genome of PEV2 were incubated for 24 hours without stirring. […]

Q: With “meso-5,10,15-tris(N-methyl-4-pyridyl)-20-(pentafluorophenyl)porphyrinatozinc(II), tris-p-toluene sulfonate [ZnPor]” as the substance, how does the biofilm state read?
A: more than a monolayer of cells, many not dead
